Wnt bcat act = activates Wnt/beta-catenin signaling in a reporter cell assay; AID 743398; 300,000 compounds, 1.2% hits; activation, % at 9.35 µM; activator, plate reader; in the data active = activation above about 30%, passing the limit was not always enough; inconclusive = no clear call, values can overlap the other calls;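 also: 0% = neutral control wells and 100% = positive control wells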
PglD DTNB = inhibitors of Campylobacter jejuni PglD acetyltransferase; 360,000 compounds, 0.098% hits; purified PglD enzyme, DTNB colorimetric CoA detection; inhibition, % at 12.5 µM; in the data active = inhibition above about 16%, passing the limit was not always enough; inconclusive = no clear call, values can overlap the other calls
esBAF inh = blocks esBAF chromatin remodeling in mouse ES cells; AID 602393; 350,000 compounds, 2% hits; Bmi1-luciferase knock-in reporter, 24 h; 100% = twice the neutral-well signal; reporter increase, % at 12.5 µM; in the data active = activation above about 40%; inconclusive = no clear call, values can overlap the other calls;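 also: 0% = median of the plate's neutral control wells and 100% = double that signal; a rise in the Bmi1 reporter signal indicates esBAF inhibition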
MITF act = increases MITF-driven TRPM1 promoter luciferase signal | AID 588334 | 300,000 compounds, 0.75% hits | activation, % at 12.5 µM | SK-MEL-5 TRPM1-promoter luciferase, 24 h; % of positive control, neutral wells = 0;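 active = mean activation of at least 80% with every replicate also reaching 80%; inconclusive = mean reaches 80% but some replicate falls short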;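 also: 0% = neutral control wells and 100% = parthenolide positive control wells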
UUG fidelity = yeast start codon fidelity modulation | S. cerevisiae UUG-firefly luciferase reporter, luminescence/redox ratio | activity score, % at 18.7 µM | hit rate 0.13% among 350,000 | AID 602363;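 active means replicate mean at a twofold rise or more, about +100% in these data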;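 further: firefly luciferase made from a UUG start codon reports start codon fidelity; reporter light over untreated wells divided by growth signal over untreated wells; some hits fall short of that in this replicate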
miR-122 sensor = miR-122 inhibition in Huh7 cells; Huh7 miR-122 Renilla luciferase sensor, 48 h; neutral wells = 0, positive control = 100; activation (reporter increase), % at 12.5 µM; 340,000 compounds, 0.3% hits; AID 602342;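 active = mean replicate activation score at least 90 and every replicate individually at or above 90; inconclusive = only one of the two criteria met; inactive = neither criterion met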;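 also: higher luciferase means less miR-122 activity so hits act as miR-122 inhibitors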
Numbers without * were called inactive; u = inconclusive; x = no result; [ ] = dose if it differs, or a comment. A selection: hits, their analogues and other compounds. The true share with any hit is near 2.8%.

Wnt bcat act	UUG fidelity	MITF act	esBAF inh	miR-122 sensor	PglD DTNB	Structure
-4	x	-6	1	38	x	O=C(Nc1ccc(N2CCN(C(=O)c3ccccc3)CC2)c(Cl)c1)c1ccc(Br)o1
65*	0	92*	x	3	-1	Cc1cc(C(=O)CN2C(=O)NC3(CCCCC3C)C2=O)c(C)n1Cc1cccs1 (stereo not drawn)
x	-4	32	51*	-4	-5	Cc1cc(C(=O)CN2C(=O)NC3(CCCCC3)C2=O)c(C)n1Cc1ccc2c(c1)OCO2
7	9	10	x	x	-7	Cc1cc(C(=O)CN2C(=O)NC3(CCCC3)C2=O)c(C)n1-c1ccc2c(c1)OCO2
5	-8	29	14	5	4	Cc1cc(C(=O)CN2C(=O)NC3(CCCCC3)C2=O)c(C)n1C
68*	-29	x	x	-3	-2	COc1ccc(NC(=O)c2cc(C)n(Cc3cccs3)c2C)cc1
73*	-20	u	x	-1	-1	Cc1cc(C(=O)CN2C(=O)NC3(CCCCC3)C2=O)c(C)n1Cc1ccco1
x	0	x	-1	x	-2	CO[C@@H]1CN(C)C(=O)c2cc(NC(=O)Nc3ccc(Cl)cc3)ccc2OC[C@H](C)N(C)C[C@@H]1C
x	2	x	0	-7[16.7 µM]	6	COCC(=O)N1[C@H](CO)[C@@H]2c3ccccc3N(C(=O)Nc3cc(F)ccc3F)C[C@@H]21
20	-11	106*	43*	-3	-3	Cc1cc(C(=O)CN2C(=O)c3cccc(N)c3C2=O)c(C)n1Cc1cccs1
-1	-6	2	-2	-7	-3	Cc1cc(C(=O)CSc2nnc(-c3ccccc3F)o2)c(C)n1Cc1cccs1
x	-4	98*	39	4	0	Cc1nc(NC(C)C)c2cnn(CCc3ccccc3)c2n1
28	-11	89*	47*	x	-4	Cn1cc(Br)c(C(=O)N/N=C/c2cc3c(cc2Cl)OCO3)n1
x	-15	77	63*	6	-1	Cn1cc(Cl)c(C(=O)N/N=C/c2ccc3c4c(cccc24)CC3)n1
x	-7	x	0	14[16.7 µM]	2	C[C@@H]1CCCCO[C@@H](CN(C)Cc2ccc3c(c2)OCO3)[C@@H](C)CN([C@H](C)CO)C(=O)c2cc(NC(=O)CCCN(C)C)ccc2O1

(list continues)
Wnt bcat act	UUG fidelity	MITF act	esBAF inh	miR-122 sensor	PglD DTNB	Structure
x	-23	99*	63*	-1	-25	COc1ccc(N=Cc2nc(-c3ccco3)oc2O)cc1
0	x	16	x	x	x	Cc1ccc(N=Cc2nc(-c3ccc(C)cc3)oc2O)cc1
10	x	22	x	0	x	O=C(Nc1ccc2nn(-c3ccc(F)cc3)nc2c1)c1cccnc1
5	-7	25	u	4	0	O=C(Nc1cc2nn(-c3ccccc3)nc2cc1Cl)c1ccco1
-2	-23	69	53*	-8	3	O=C(Nc1ccc2nn(-c3ccccc3)nc2c1)c1cccnc1
x	-5	x	62*	2	3	O=C(Nc1ccc2nn(-c3ccccc3)nc2c1)c1ccco1
x	x	x	x	-6[16.7 µM]	x	C[C@H]1CN([C@@H](C)CO)S(=O)(=O)c2ccc(C3=CCCCC3)cc2O[C@H]1CN(C)C
x	x	x	5	-2[16.7 µM]	-1	CC=Cc1ccc2n(c1=O)C[C@H]1[C@H](CO)[C@@H](C(=O)NCc3ccccc3)N(CCC(F)(F)F)[C@@H]21 (mixture of isomers)
40*	-13	9	57*	-6	6	CCOC(=O)C1CCN(C(=O)c2cc(COc3ccc(OC)c4ccccc34)on2)CC1
18	-11	49	u	0	-3	COCC1CCN(C(=O)c2cc(COc3ccc(OC)c4ccccc34)on2)C1 (stereo not drawn)
22	6	33	70*	5	-4	COc1ccc(OCc2cc(C(=O)N3CCC(OC)CC3)no2)c2ccccc12
x	x	x	-7	6[16.7 µM]	-4	CCN1[C@@H]2c3ccc(-c4cncnc4)c(=O)n3C[C@@H]2[C@@H](CO)[C@@H]1C(=O)OC
x	-8	x	-1	-6[16.7 µM]	-3	C[C@@H]1CN([C@@H](C)CO)C(=O)Cc2cc(NC(=O)C3CC3)ccc2O[C@H]1CN(C)C(=O)Nc1ccc(F)cc1
-2	-18	132*	53*	x	2	Nc1cccc(C#Cc2ccc3c(=O)c4ccccc4oc3c2)c1
11	-8	80*	44*	-4	-5	CC(=O)c1ccc2oc3ccccc3c(=O)c2c1

Wnt bcat act, what is marked active above.
Wnt bcat act	UUG fidelity	MITF act	esBAF inh	miR-122 sensor	PglD DTNB	Structure
65*	0	92*	x	3	-1	Cc1cc(C(=O)CN2C(=O)NC3(CCCCC3C)C2=O)c(C)n1Cc1cccs1 (stereo not drawn)
68*	-29	x	x	-3	-2	COc1ccc(NC(=O)c2cc(C)n(Cc3cccs3)c2C)cc1
73*	-20	u	x	-1	-1	Cc1cc(C(=O)CN2C(=O)NC3(CCCCC3)C2=O)c(C)n1Cc1ccco1
40*	-13	9	57*	-6	6	CCOC(=O)C1CCN(C(=O)c2cc(COc3ccc(OC)c4ccccc34)on2)CC1

Following part.
Wnt bcat act	UUG fidelity	MITF act	esBAF inh	miR-122 sensor	PglD DTNB	Structure
20	-17	58	42*	x	10	Nc1ccc(C#Cc2ccc3oc4ccccc4c(=O)c3c2)cc1
33*	x	58	20	-10	x	CC(=O)Nc1ccc(-c2csc(Nc3ncccn3)n2)cc1
-2	x	95*	28	-6	x	Oc1ccc(-c2csc(Nc3ncccn3)n2)cc1
9	x	33	72*	9	x	COc1ccccc1NC(=O)C(=O)c1cn(CC(=O)N2CCCC2)c2ccccc12
x	13	x	47*	-4	3	CC(=O)Nc1cccc(NC(=O)C(=O)c2cn(CC(=O)N3CCCC3)c3ccccc23)c1
-2	x	-3	x	x	x	CC(=O)Nc1ccc(NC(=O)C(=O)c2cn(CC(=O)N3CCCCC3)c3ccccc23)cc1
-1	6	82*	60*	7	0	CCN(CC)C(=O)Cn1cc(C(=O)C(=O)Nc2ccc3c(c2)OCCO3)c2ccccc21
x	10	x	2	-3[16.7 µM]	-3	C[C@@H]1CCCCO[C@H](CN(C)S(=O)(=O)c2ccccc2)[C@H](C)CN([C@H](C)CO)C(=O)c2cc(NS(C)(=O)=O)ccc2O1
51*	x	103*	x	x	x	O=[N+]([O-])c1cccnc1Oc1ccc(C2SCCS2)cc1
2	-7	x	x	6	-3	COc1cc(C2SCCS2)cc(Br)c1Oc1ncccc1[N+](=O)[O-]
49*	x	6	12	-5	x	O=C(Nc1ccc(NC(=O)C2CC2)nc1)c1cnccn1
61*	-6	2	-5	-6	-4	COc1cc(C(=O)Nc2ccc(NC(=O)C3CC3)nc2)cc(OC)c1OC
x	-24	u	33	20	-1	CCC(=O)Nc1ccc(NC(=O)c2cccc(OC)c2)nc1
0	-38	-3	-44	-4	-1	O=C(Nc1ccc(NC(=O)C2CC2)nc1)c1ccccn1
24	-17	102*	x	0	3	COc1cccc(C(=O)Nc2ccc(NC(=O)C3CC3)cn2)c1

Going on with the list:
Wnt bcat act	UUG fidelity	MITF act	esBAF inh	miR-122 sensor	PglD DTNB	Structure
4	4	10	7	x	4	COc1cc(C(=O)Nc2ccc(NC(=O)c3ccccc3)nc2)cc(OC)c1OC
35*	x	x	x	x	x	Cc1ccc(SCc2cn3cc(Cl)ccc3n2)cc1
1	-63	84*	7	-2	1	Cc1ccc(SCc2cn3c(C)csc3n2)cc1
x	3	5	2	-1	0	Cc1nc(CSc2ccc(Cl)cc2)cc(NCc2ccccc2)n1
10	-13	80	52*	-6	1	CNc1cc(CSc2ccc(Cl)cc2)nc(C)n1
-5	-15	-8	-1	x	3	Clc1ccc2nc(CSc3nncn3-c3ccccc3)cn2c1
67*	x	51	x	x	x	Clc1ccc2nc(CSCc3ccccc3)cn2c1

No new results follow: entries from further up.
Wnt bcat act	UUG fidelity	MITF act	esBAF inh	miR-122 sensor	PglD DTNB	Structure
-5	-15	-8	-1	x	3	Clc1ccc2nc(CSc3nncn3-c3ccccc3)cn2c1
67*	x	51	x	x	x	Clc1ccc2nc(CSCc3ccccc3)cn2c1

Screening data from PubChem.
